Assay outcomes deposited in PubChem by Broad Institute.
Yeast UUG start = modulators of start codon recognition fidelity in yeast; S. cerevisiae UUG-firefly luciferase reporter, luminescence/redox ratio; AID 602363; 350,000 tested, 0.13% active; activity score, % at 18.7 µM;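 active = replicate mean at a twofold rise or more, about +100% in these data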;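 also: firefly luciferase made from a UUG start codon reports start codon fidelity; reporter light over untreated wells divided by growth signal over untreated wells; some hits fall short of that in this replicate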
ERp5 inh = blocks human ERp5 reductase activity on insulin; Q15084; ERp5 insulin aggregation, absorbance 650 nm, 90 min; inhibition, % at 9.99 µM; actives 0.05% (n = 350,000);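 active means mean replicate inhibition above about 25%, with every replicate also reaching it, limit read from the data, passing the limit was not always enough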
PDI inh = blocks human protein disulfide isomerase activity. actives 0.052% (n = 350,000). PDI insulin aggregation turbidity, A650, 90 min. inhibition, % at 10 µM;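 active means mean inhibition across replicates of 30% or more, whatever share of single replicates reach that level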
FGF22 binding = FGF22 (human) thermal shift binding. recombinant FGF22 thermal shift, SYPRO orange fluorescence; percent of sucrose octasulfate shift, DMSO zero. AID 651658. actives 1.5% (n = 340,000). activity (Tm shift, normalised), % at 9.99 µM;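 active means mean Tm shift, scaled 0 neutral to 100 positive control, at about 1.3% or above, every replicate too, limit read from the data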
SIRT5 inh = sirtuin-5 (human) deacylase inhibition. actives 1.1% (n = 330,000). Purified SirT5, succinyl-peptide AMC, trypsin-coupled fluorescence. AID 652115. inhibition, % at 15 µM. Q9NXA8; in the data active means inhibition above about 15%
S100A4 MyoIIA = inhibitors of human S100A4 binding to myosin IIA peptide. S100A4/TAMRA-MyoIIA peptide fluorescence polarization. inhibition, % at 10.7 µM. actives 0.14% (n = 360,000). AID 652163;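 active means mean inhibition of at least 70% across replicates, with every replicate also reaching that level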
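assay system = human S100A4 monomer with TAMRA-labelled myosin IIA peptide | also added = labelled myosin peptide probe, 5 nM | incubation = 5 min between mix addition and reading | control set = DMSO and TFP controls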
The depositor's hits bear a star; · = not tested or not shown. Sampled rows, rich in hits. Any-hit rate of the full collection: about 2.2%.

# | smiles | FGF22 binding | Yeast UUG start | ERp5 inh
1 | COCC(=O)N1CC2(C1)CN(Cc1ccccc1F)[C@H](CO)c1[nH]c3cc(OC)ccc3c12 | 0 | · | 34*
2 | COc1ccc2c3c([nH]c2c1)[C@H](CO)N(C(=O)NC(C)C)CC31CN(C(=O)C2CCCC2)C1 | 0 | · | 67*
3 | CCCC(=O)N1CC2(C1)CN(S(=O)(=O)c1ccc(C)cc1)[C@H](CO)c1[nH]c3cc(OC)ccc3c12 | · | · | 0
4 | CCCC(=O)N1CCC2(CC1)CN(S(=O)(=O)c1ccc(C)cc1)[C@H](CO)c1[nH]c3cc(OC)ccc3c12 | 0 | · | 5
5 | COCC(=O)N1CCC2(CC1)CN(Cc1ccccc1F)[C@H](CO)c1[nH]c3cc(OC)ccc3c12 | 0 | · | 0
6 | O=C(C[C@@H]1CC[C@H](NC(=O)c2ccccc2)[C@@H](CO)O1)NCc1ccncn1 | 0 | 4 | -6
7 | COc1ccc2c3c([nH]c2c1)[C@@H](CO)N(C(=O)C1CCCC1)CC31CCN(C(=O)NC(C)C)CC1 | 0 | · | 27*
8 | CCS(=O)(=O)N1CC2(C1)CN(S(=O)(=O)c1cn(C)cn1)[C@@H](CO)c1[nH]c3cc(OC)ccc3c12 | 0 | · | 1
9 | COc1ccc2c3c([nH]c2c1)[C@H](CO)N(C(=O)C1CCCC1)CC31CCN(C(=O)NC(C)C)CC1 | 0 | · | 5
10 | CC(CCC(=O)Nc1nncs1)C(=O)O (stereo not drawn) | 0 | 3 | -2
11 | CCCCC(C(=O)O)C(C)CC(=O)Nc1nncs1 (stereo not drawn) | 43* | -21 | -3
12 | C[C@@H]1CCCCO[C@@H](CN(C)C(=O)Nc2ccccc2)[C@@H](C)CN([C@@H](C)CO)C(=O)c2cc(NS(=O)(=O)c3ccc(F)cc3)ccc2O1 | 0 | · | 6

# | S100A4 MyoIIA | PDI inh | SIRT5 inh
1 | -5 | · | 0
2 | 13 | · | -1
3 | 4 | · | 15*
4 | -4 | · | 5
5 | -1 | · | -4
6 | -6 | · | 1
7 | -1 | · | 0
8 | -6 | · | 30*
9 | -14 | · | 1
10 | 11 | · | 1
11 | 3 | 10 | -3
12 | -2 | · | -1

Additional entries follow:
# | smiles | FGF22 binding | Yeast UUG start | ERp5 inh
13 | CCOc1cc(/C=C2\SC(=N)N(c3nonc3N)C2=O)ccc1OCCN1CCOCC1 | 1.5* | · | 7
14 | CCOc1cc(/C=C2\SC(=N)N(c3nonc3N)C2=O)ccc1OCC(N)=O | · | 5 | ·
15 | CC1(C)CC(=O)C2=C(C1)N(c1ccc(F)cc1)C(=O)CC2c1ccccc1 (stereo not drawn) | · | -9 | ·
16 | O=C1CCCC2=C1C(c1ccccc1)CC(=O)N2c1ccc(F)cc1F (stereo not drawn) | 43* | · | 2
17 | O=C(Cc1ccccn1)N1CC(=O)N2[C@@H](CO)[C@H](c3ccc(C#CC4CC4)cc3)[C@@H]2C1 | · | · | -2
18 | Cc1ccc(O)c(N=Cc2cc(Cc3ccccc3)cc([N+](=O)[O-])c2O)c1 | 43* | · | -7
19 | O=[N+]([O-])c1cc(Cc2ccccc2)cc(C=Nc2ccc(N3CCOCC3)cc2)c1O | · | · | ·
20 | Cc1cccc(N2CCN(C(=O)c3ccc4nc[nH]c4c3)CC2)c1C | 0 | -28 | -1
21 | Cc1ccc(Cl)cc1N1CCN(C(=O)c2ccc3nc[nH]c3c2)CC1 | 0 | · | -4
22 | COC(=O)/C=C1/C(=O)N/C(=N\c2nc(C)cc(C)n2)N1c1ccc(OC)cc1 | 44* | -20 | 0
23 | COC(=O)/C=C1\N/C(=N\c2nc(C)cc(C)n2)N(c2ccc(Cl)cc2)C1=O | 0 | -10 | 4
24 | Clc1cc(Br)ccc1OCCN1CCOCC1 | 0 | -7 | -3

# | S100A4 MyoIIA | PDI inh | SIRT5 inh
13 | -2 | 1 | -1
14 | · | -17 | ·
15 | · | -4 | ·
16 | -1 | 2 | -2
17 | -12 | · | 4
18 | -22 | 1 | -4
19 | · | 8 | ·
20 | 1 | -2 | 31*
21 | -2 | 13 | 1
22 | -2 | 0 | 0
23 | 2 | 1 | -1
24 | 19 | 8 | 26*

3 of the entries above in order of their number in PDI inh, low to high.
| No. | canonical_smiles | PDI inh |
| --- | --- | --- |
| 15 | CC1(C)CC(=O)C2=C(C1)N(c1ccc(F)cc1)C(=O)CC2c1ccccc1 (stereo not drawn) | -4 |
| 23 | COC(=O)/C=C1\N/C(=N\c2nc(C)cc(C)n2)N(c2ccc(Cl)cc2)C1=O | 1 |
| 16 | O=C1CCCC2=C1C(c1ccccc1)CC(=O)N2c1ccc(F)cc1F (stereo not drawn) | 2 |

Individual results from the results shown.
SIRT5 inh, `COC(=O)/C=C1\N/C(=N\c2nc(C)cc(C)n2)N(c2ccc(Cl)cc2)C1=O` reads -1
SIRT5 inh, `Clc1cc(Br)ccc1OCCN1CCOCC1` reads 26*
PDI inh, `CCOc1cc(/C=C2\SC(=N)N(c3nonc3N)C2=O)ccc1OCCN1CCOCC1` reads 1
FGF22 binding, `O=C1CCCC2=C1C(c1ccccc1)CC(=O)N2c1ccc(F)cc1F` (stereo not drawn) reads 43*

Further entries
# | smiles | FGF22 binding | Yeast UUG start | ERp5 inh
25 | CN1CCN(CCOCCOc2ccc(Br)cc2Cl)CC1 | 0 | -26 | 0
26 | COc1ccc(S(=O)(=O)N(C)C[C@H]2Oc3ccc(NS(=O)(=O)c4ccc(C)cc4)cc3C(=O)N([C@@H](C)CO)C[C@H]2C)cc1 | -1 | · | -3
27 | Cc1nccn1-c1ccc(C(F)(F)F)cc1NC=O | · | -20 | ·
28 | Cc1nccn1-c1ccc(C(F)(F)F)cc1[N+](=O)[O-] | 43* | · | -4
29 | CN(C)CCOC(=O)NCC12CC3CC(CC(C3)C1)C2 | 0 | -17 | 2
30 | C[C@@H]1CN([C@H](C)CO)C(=O)c2cccc(NC(=O)NC3CCCCC3)c2O[C@H]1CN(C)Cc1ccc(Cl)c(Cl)c1 | 0 | -2 | 1
31 | CC(=O)N1Cc2cc(C(=O)NCc3cc(F)cc(F)c3)nc(-c3cccc(C4=CCCC4)c3)c2[C@H]1CCO | -1 | · | -8
32 | O=C(C1CC1)N1CC(=O)N2[C@H](CO)[C@H](c3ccc(-c4ccccc4F)cc3)[C@H]2C1 | · | · | -2
33 | CC(=O)N(c1nc(CCl)cs1)c1cccc(C)c1C | 0 | -14 | 10
34 | CC(=O)N(c1nc(/C=C\C(=O)O)cs1)c1ccccc1F | 0 | -12 | -9
35 | CCOC(=O)N/N=C/c1c(F)c(F)c(F)c(F)c1F | 44* | · | 1
36 | CCOC(=O)N/N=C/c1c(F)cccc1F | · | -8 | ·

# | S100A4 MyoIIA | PDI inh | SIRT5 inh
25 | -2 | 8 | -3
26 | 2 | · | 1
27 | · | -5 | ·
28 | 1 | 1 | -2
29 | 1 | -14 | 21*
30 | -9 | · | -2
31 | -3 | · | 15*
32 | 0 | · | -5
33 | 2 | 5 | -6
34 | -8 | 1 | 17*
35 | 0 | -9 | -1
36 | · | 22 | ·

The list continues.
# | smiles | FGF22 binding | Yeast UUG start | ERp5 inh
37 | COc1cccc(S(=O)(=O)Nc2ccc3c(c2)[C@H]2C[C@@H](CC(=O)O)O[C@H](CO)[C@H]2O3)c1 | 0 | 37* | 3
38 | CN(C)C(=O)C[C@H]1C[C@H]2c3cc(NS(C)(=O)=O)ccc3O[C@H]2[C@@H](CO)O1 | 0 | -6 | 33*
39 | CN(C)C(=O)C[C@H]1C[C@H]2c3cc(NS(C)(=O)=O)ccc3O[C@H]2[C@H](CO)O1 | 0 | -13 | 68*
40 | CN(C)C(=O)C[C@H]1C[C@@H]2c3cc(NS(C)(=O)=O)ccc3O[C@@H]2[C@H](CO)O1 | 1 | -6 | 15
41 | COc1ccc(NC(=O)N(C)C[C@H]2OCCCC[C@H](C)Oc3ccc(NS(=O)(=O)c4c(C)noc4C)cc3C(=O)N([C@H](C)CO)C[C@@H]2C)cc1 | 0 | 17 | ·
42 | CNC[C@@H]1Oc2c(NS(=O)(=O)c3cccs3)cccc2C(=O)N([C@@H](C)CO)C[C@@H]1C | 0 | -9 | -6
43 | CC1(C)Cc2c(sc(NC(=S)NC(=O)c3ccccc3)c2C(=O)O)CO1 | 44* | · | -2
44 | CC(C)(C)N(Cc1ccccc1)C(=O)c1ccc(Br)o1 | 0 | 4 | 3
45 | O=C(CSc1nc(-c2ccccc2)nc2ccc(F)cc12)Nc1ccc(C(=O)O)cc1 | 6.0* | · | 2

# | S100A4 MyoIIA | PDI inh | SIRT5 inh
37 | 3 | · | 0
38 | -2 | · | 1
39 | -2 | · | -14
40 | 6 | · | 1
41 | · | · | ·
42 | -15 | · | -2
43 | 0 | -2 | 2
44 | 1 | 2 | 19*
45 | 1 | -5 | 1
